Apparent affinities of Ab-14 variants for a coronavirus HR2 peptide

Binding partner: SARS-CoV-2 spike HR2 peptide, sequence PDVDLGDISGINAS.

Parent: Ab-14, a human scFv built as VH, a 15-residue (Gly4Ser)3 linker, VL. Only the CDRs of the light chain vary.
VH: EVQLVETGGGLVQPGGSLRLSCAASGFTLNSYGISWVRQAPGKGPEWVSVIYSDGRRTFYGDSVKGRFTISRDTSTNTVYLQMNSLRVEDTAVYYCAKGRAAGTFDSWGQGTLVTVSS
VL: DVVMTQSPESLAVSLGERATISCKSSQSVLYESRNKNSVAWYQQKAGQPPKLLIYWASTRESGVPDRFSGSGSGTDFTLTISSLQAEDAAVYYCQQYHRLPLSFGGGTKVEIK

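The starting antibody came from a phage panning campaign against this peptide. AAYL50 was designed without a model: most single CDR substitutions and a random sample of double and triple ones. AlphaSeq pools MATa yeast showing the antibodies with MATalpha yeast showing the peptide. Binding brings cells together so that they mate, and sequencing counts the barcode pairs among the diploids. A regression on co-assayed BCL2-family reference pairs converts the normalised counts of each replicate to an apparent Kd. There are three technical replicates.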

Each variant is given by its three light chain CDRs, as the data file delimits them; those of the parent are KSSQSVLYESRNKNSVA, WASTRES, QQYHRLPLS. These are single substitutions, in order of position. Affinities are written as log10 Kd with Kd in nM; a lower number is a better binder. Averages over replicates are reported, and they cover detected replicates only. An entry "nd" has no value in the source: the pair was not observed among the diploids in any replicate. This suggests poor binding but is not conclusive. Background: pairings of library AAYL50 with three empty control strains gave a value in 18% of cases (median 4.19, 5th percentile 2.99). Values in that range, when seen in few replicates, are hard to tell from nonspecific mating. Also given: how often the same scFv was detected with the empty control strains.

{"CDR-L1": "KSTQSVLYESRNKNSVA", "CDR-L2": "WASTRES", "CDR-L3": "QQYHRLPLS", "log10 Kd (nM), mean": "0.95", "detected": "3/3", "empty controls": "0/9"}
{"CDR-L1": "KSDQSVLYESRNKNSVA", "CDR-L2": "WASTRES", "CDR-L3": "QQYHRLPLS", "log10 Kd (nM), mean": "2.21", "detected": "3/3", "empty controls": "3/9"}
{"CDR-L1": "KSKQSVLYESRNKNSVA", "CDR-L2": "WASTRES", "CDR-L3": "QQYHRLPLS", "log10 Kd (nM), mean": "1.34", "detected": "3/3", "empty controls": "1/9"}
{"CDR-L1": "KSAQSVLYESRNKNSVA", "CDR-L2": "WASTRES", "CDR-L3": "QQYHRLPLS", "log10 Kd (nM), mean": "0.79", "detected": "3/3", "empty controls": "1/9"}
{"CDR-L1": "KSEQSVLYESRNKNSVA", "CDR-L2": "WASTRES", "CDR-L3": "QQYHRLPLS", "log10 Kd (nM), mean": "1.25", "detected": "3/3", "empty controls": "1/9"}
{"CDR-L1": "KSLQSVLYESRNKNSVA", "CDR-L2": "WASTRES", "CDR-L3": "QQYHRLPLS", "log10 Kd (nM), mean": "1.06", "detected": "3/3", "empty controls": "3/9"}
{"CDR-L1": "KSWQSVLYESRNKNSVA", "CDR-L2": "WASTRES", "CDR-L3": "QQYHRLPLS", "log10 Kd (nM), mean": "2.62", "detected": "3/3", "empty controls": "4/9"}
{"CDR-L1": "KSVQSVLYESRNKNSVA", "CDR-L2": "WASTRES", "CDR-L3": "QQYHRLPLS", "log10 Kd (nM), mean": "1.63", "detected": "3/3", "empty controls": "6/9"}
{"CDR-L1": "KSYQSVLYESRNKNSVA", "CDR-L2": "WASTRES", "CDR-L3": "QQYHRLPLS", "log10 Kd (nM), mean": "1.36", "detected": "3/3", "empty controls": "5/9"}
{"CDR-L1": "KSNQSVLYESRNKNSVA", "CDR-L2": "WASTRES", "CDR-L3": "QQYHRLPLS", "log10 Kd (nM), mean": "1.09", "detected": "3/3", "empty controls": "0/9"}
{"CDR-L1": "KSRQSVLYESRNKNSVA", "CDR-L2": "WASTRES", "CDR-L3": "QQYHRLPLS", "log10 Kd (nM), mean": "1.20", "detected": "3/3", "empty controls": "2/9"}
{"CDR-L1": "KSHQSVLYESRNKNSVA", "CDR-L2": "WASTRES", "CDR-L3": "QQYHRLPLS", "log10 Kd (nM), mean": "1.18", "detected": "3/3", "empty controls": "2/9"}
{"CDR-L1": "KSSKSVLYESRNKNSVA", "CDR-L2": "WASTRES", "CDR-L3": "QQYHRLPLS", "log10 Kd (nM), mean": "1.11", "detected": "3/3", "empty controls": "0/9"}
{"CDR-L1": "KSSESVLYESRNKNSVA", "CDR-L2": "WASTRES", "CDR-L3": "QQYHRLPLS", "log10 Kd (nM), mean": "0.95", "detected": "3/3", "empty controls": "0/9"}
{"CDR-L1": "KSSCSVLYESRNKNSVA", "CDR-L2": "WASTRES", "CDR-L3": "QQYHRLPLS", "log10 Kd (nM), mean": "1.26", "detected": "3/3", "empty controls": "5/9"}
{"CDR-L1": "KSSNSVLYESRNKNSVA", "CDR-L2": "WASTRES", "CDR-L3": "QQYHRLPLS", "log10 Kd (nM), mean": "2.77", "detected": "1/3", "empty controls": "0/9"}
{"CDR-L1": "KSSTSVLYESRNKNSVA", "CDR-L2": "WASTRES", "CDR-L3": "QQYHRLPLS", "log10 Kd (nM), mean": "nd", "detected": "0/3", "empty controls": "0/9"}
{"CDR-L1": "KSSHSVLYESRNKNSVA", "CDR-L2": "WASTRES", "CDR-L3": "QQYHRLPLS", "log10 Kd (nM), mean": "0.95", "detected": "3/3", "empty controls": "2/9"}
{"CDR-L1": "KSSSSVLYESRNKNSVA", "CDR-L2": "WASTRES", "CDR-L3": "QQYHRLPLS", "log10 Kd (nM), mean": "1.15", "detected": "3/3", "empty controls": "4/9"}

Picked from the list: the 2 lowest averages where every replicate gave a value.

| CDR-L1 | CDR-L2 | CDR-L3 | log10 Kd (nM), mean | detected | empty controls |
|---|---|---|---|---|---|
| KSAQSVLYESRNKNSVA | WASTRES | QQYHRLPLS | 0.79 | 3/3 | 1/9 |
| KSTQSVLYESRNKNSVA | WASTRES | QQYHRLPLS | 0.95 | 3/3 | 0/9 |

In this assay the parent's reference entry averaged 0.65; its copy inside this library read 1.68.

Reference: Engelhart et al. 2022, doi:10.1038/s41597-022-01779-4. File: FLAb, binding data.